Only a part is listed here, and it is no random draw. Active and inactive are the calls of the source.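 The calls were made as follows: active = inhibition above a per-campaign cutoff, the mean of all compounds plus 3 SD (cut at about 60% in these data); inactive = the rest.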
Molecular target: Nuclear receptor coactivator 3 (Homo sapiens) (UniProt Q9Y6Q9)
Assay: SRC3 coactivator transcriptional activity inhibitors, primary screen, cell-based, luminescence (AID 588352);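 also: 0% = DMSO-treated cells and 100% = gossypol-treated cells at 36 µM; higher means less SRC3-driven luciferase light from the GAL4 reporter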
Details: HEK293 GAL4-SRC3 luciferase reporter, at 3.6 µM, hits give high values

Sequences of proteins named here, by UniProt entry; tags and fusion partners are left off.
UniProt Q9Y6Q9, whole entry, looked up: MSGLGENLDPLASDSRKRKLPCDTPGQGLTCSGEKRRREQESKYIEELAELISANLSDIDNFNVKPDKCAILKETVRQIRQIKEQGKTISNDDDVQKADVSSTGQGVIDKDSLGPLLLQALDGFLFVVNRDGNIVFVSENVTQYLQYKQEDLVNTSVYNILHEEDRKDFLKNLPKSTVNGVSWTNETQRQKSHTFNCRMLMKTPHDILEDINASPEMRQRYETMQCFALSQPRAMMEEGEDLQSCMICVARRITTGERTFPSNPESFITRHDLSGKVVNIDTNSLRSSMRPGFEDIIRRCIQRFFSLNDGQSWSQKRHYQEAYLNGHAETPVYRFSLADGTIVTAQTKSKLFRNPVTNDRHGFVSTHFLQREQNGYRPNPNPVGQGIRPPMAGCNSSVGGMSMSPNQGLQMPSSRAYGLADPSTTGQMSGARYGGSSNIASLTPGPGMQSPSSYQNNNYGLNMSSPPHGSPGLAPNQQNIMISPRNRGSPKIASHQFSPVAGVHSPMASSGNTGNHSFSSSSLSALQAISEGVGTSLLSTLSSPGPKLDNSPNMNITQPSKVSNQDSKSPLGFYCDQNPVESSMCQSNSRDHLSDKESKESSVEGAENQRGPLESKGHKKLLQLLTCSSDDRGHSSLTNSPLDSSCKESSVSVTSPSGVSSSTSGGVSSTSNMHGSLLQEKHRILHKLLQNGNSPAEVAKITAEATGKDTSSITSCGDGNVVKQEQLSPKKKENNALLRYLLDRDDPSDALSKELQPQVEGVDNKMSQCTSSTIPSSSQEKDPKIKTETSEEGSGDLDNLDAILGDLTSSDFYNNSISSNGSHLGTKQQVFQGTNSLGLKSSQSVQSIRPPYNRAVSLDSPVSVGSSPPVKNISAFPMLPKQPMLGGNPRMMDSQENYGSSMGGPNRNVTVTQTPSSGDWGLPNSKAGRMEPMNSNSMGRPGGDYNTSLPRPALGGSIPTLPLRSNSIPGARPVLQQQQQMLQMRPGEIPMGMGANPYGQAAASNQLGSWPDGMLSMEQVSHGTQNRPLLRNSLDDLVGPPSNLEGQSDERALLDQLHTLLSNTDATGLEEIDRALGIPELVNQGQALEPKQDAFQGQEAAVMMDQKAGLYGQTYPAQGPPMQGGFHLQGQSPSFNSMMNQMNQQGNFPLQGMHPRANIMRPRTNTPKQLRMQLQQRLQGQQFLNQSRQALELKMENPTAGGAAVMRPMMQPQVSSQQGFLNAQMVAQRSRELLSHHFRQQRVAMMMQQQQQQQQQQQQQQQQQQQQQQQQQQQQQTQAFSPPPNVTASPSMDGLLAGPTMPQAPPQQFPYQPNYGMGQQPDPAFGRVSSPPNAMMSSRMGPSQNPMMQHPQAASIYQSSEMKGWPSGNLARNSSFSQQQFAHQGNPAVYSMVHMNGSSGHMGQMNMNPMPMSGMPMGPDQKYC

Row | Compound | inhibition
1 | Nc1ccc([As](=O)(O)c2ccc(N)cc2)cc1 | inactive: 16.2%
2 | C[N+]1=C2C=CC=CC=C2SC12C([N+](=O)[O-])=CC([N+](=O)[O-])=C[C-]2[N+](=O)[O-] (configuration not stated) | inactive: -108%
3 | CCN(/C(=N/P(=O)(N1CCOCC1)N1CCOCC1)N1CCOCC1)c1ccc(OC)cc1 | inactive: -0.63%
4 | CC(C)=N/N=C(\N)N[N+](=O)[O-] | inactive: -12.1%
5 | CC(C)c1nc(Nc2ccccc2)n(P(=O)(N(C)C)N(C)C)n1 | inactive: 1.03%
6 | CN(C)C(=O)OCCc1n(C)cc[n+]1C | inactive: 13.1%
7 | c1cc(-c2nn[nH]n2)ccc1-c1nn[nH]n1 | inactive: -1.66%
8 | CC1CCN(C(=O)Oc2c(Cl)cc(Cl)c3cccnc23)CC1 | inactive: -4.94%
9 | COc1ccc(C2=NCC(CBr)S2)cc1 (configuration not stated) | inactive: -16.6%
10 | O=[N+]([O-])c1cccc2n[nH]nc12 | inactive: 12.5%
11 | CC(=O)N1C2C3N(C(C)=O)C1C1N(C(C)=O)C(C(N1C(C)=O)N3C(C)=O)N2C(C)=O | inactive: 24.9%
12 | Cc1ccc(NP(=O)(Oc2ccccc2)Oc2ccccc2)nc1 | inactive: 5.26%
13 | CCc1nc2c(n1)c1c(non1O)c1c2no[n+]1[O-] | inactive: 5.55%
14 | O=[N+]([O-])c1cc([N+](=O)[O-])c(CCNc2ccccc2)c([N+](=O)[O-])c1 | inactive: 8.67%
15 | CC(C)(C)C(=O)NC(Sc1ccncn1)C(Cl)(Cl)Cl (configuration not stated) | inactive: 20.7%
16 | O=[N+]([O-])c1ncn(CCn2ncnc2[N+](=O)[O-])n1 | inactive: -3.16%
17 | O=[N+]([O-])c1cccc(NC2=NCC(CBr)S2)c1 (configuration not stated) | inactive: 14.4%
18 | COC(=O)C1(C)COP(=O)(Nc2ccccc2)OC1 (configuration not stated) | inactive: -9.73%
19 | O=C(O)CNc1ccc([As](=O)(O)O)cc1 | inactive: 2.01%
20 | O=P1(N(CCCl)CCCl)OCCCS1 (configuration not stated) | inactive: -23.5%
21 | O=C(Nc1cc([As](=O)(O)O)ccc1O)c1ccccc1 | inactive: -2.53%
22 | CCN(N=Nc1nonc1N)c1nonc1N | inactive: 22.8%
23 | Nc1cccc2ccc([As](=O)(O)O)cc12 | inactive: -2.01%
24 | O=C(O)c1ccccc1[As](=O)(O)O | inactive: 16.3%
25 | CC(=O)Nc1ccc([As](=O)(O)O)cc1 | inactive: -15%
26 | CCCC1OP(N)(=O)OCC1CC (configuration not stated) | inactive: 0.92%

Row | Compound | inhibition
27 | CN(C)P(=O)(N(C)C)n1c(Nc2ccccc2)nnc1-c1ccccc1 | inactive: -33.9%
28 | O=P(Nc1nc2ccc(Cl)cc2s1)(c1ccccc1)c1ccccc1 | inactive: -2.13%
29 | CCOP(=O)(Nc1ccccc1)OCC | inactive: -13.4%
30 | Cc1cc(SC(NC(=O)c2ccc(F)cc2)C(Cl)(Cl)Cl)ncn1 (configuration not stated) | inactive: 11.9%
31 | Cc1ccc(NP(=O)(Oc2ccccc2F)Oc2ccccc2F)nc1 | inactive: 7.6%
32 | CN(C(=O)Cc1ccc(Cl)c(Cl)c1)[C@H]1CCCC[C@@H]1N1CCCC1 | inactive: 8.84%
33 | CC(C)CC(=O)NC(Sc1ccc(Cl)cc1)C(Cl)(Cl)Cl (configuration not stated) | inactive: 18.7%
34 | Nc1cc(N)c2nonc2c1[N+](=O)[O-] | inactive: 15.1%
35 | Oc1ccccc1CNc1ccccn1 | inactive: 3.21%
36 | O=C(NC(Sc1ccncn1)C(Cl)(Cl)Cl)c1ccccc1 (configuration not stated) | inactive: 4.11%
37 | O=[N+]([O-])C1C(O)C(O)C([N+](=O)[O-])C(O)C1O (configuration not stated) | inactive: -5.13%
38 | NC(=O)c1cc([N+](=O)[O-])cc([N+](=O)[O-])c1N | inactive: 12.1%
39 | CN(C(=O)Cc1ccc(Cl)c(Cl)c1)[C@H]1CCCC[C@H]1N1CCCC1 | inactive: 9.07%
40 | Cc1ccc(N/C(=N/P(=O)(N2CCOCC2)N2CCOCC2)N2CCOCC2)cc1 | inactive: 11%
41 | COc1ccccc1OP(=O)(Nc1ccc(C)cn1)Oc1ccccc1OC | inactive: -5.52%
42 | Cc1ccc(OP(=O)(Nc2nccs2)Oc2ccc(C)cc2)cc1 | inactive: 10.4%
43 | Clc1ccc(Cl)c(NC2=NCC(CBr)S2)c1 (configuration not stated) | inactive: -3.52%
44 | CN1CCCC(OC(=O)C(c2ccccc2)c2ccccc2)C1 (configuration not stated) | inactive: 10.5%
45 | N#C/C(=C\c1ccc(N(CCBr)CCBr)cc1)C(N)=O | inactive: -17.4%
46 | CC(=O)c1ccc(N2CC2c2ccncc2)cc1 (configuration not stated) | inactive: 2.54%
47 | COC(=O)C1(C)COP(=O)(NCc2ccccc2)OC1 (configuration not stated) | inactive: -24.2%
48 | Cc1ccccc1CN(C)C(=O)COC(=O)C(O)(c1ccccc1)c1ccccc1 | inactive: 26.1%
49 | C[C@@H]1C=CCP(=O)(Oc2ccccc2)O1 (some centres not stated) | inactive: -0.95%
50 | C[C@H]1OP(=O)(Oc2ccccc2)C[C@@H]2O[C@@H]21 (some centres not stated) | inactive: -19.7%
51 | CC(=O)Nc1ccc([As](=O)(O)O)c(O)c1 | inactive: -6.8%
52 | CC(=O)Nc1ccc(Oc2c([N+](=O)[O-])cc([N+](=O)[O-])cc2[N+](=O)[O-])cc1 | inactive: -4.38%

Row | Compound | inhibition
53 | O=P1(Nc2nc3ccc(Cl)cc3s2)COc2ccccc2O1 (configuration not stated) | inactive: -16.4%
54 | CCOc1ccc(C2=NCC(CBr)S2)cc1 (configuration not stated) | inactive: 13.7%
55 | CCc1cc(O)c([N+](=O)[O-])c(C)c1[N+](=O)[O-] | inactive: 5.28%
56 | CC(C)(C)C(=O)NC(Sc1ccccc1)C(Cl)(Cl)Cl (configuration not stated) | inactive: 14.1%
57 | COC(=O)c1cc2c(s1)N=C(c1ccccc1)N(C)P2(=O)N1CCOCC1 (configuration not stated) | inactive: 10.4%
58 | Cc1ccc(OP(=O)(Nc2ccccn2)Oc2ccc(C)cc2)cc1 | inactive: 14.7%
59 | CC(=O)NC(SC(=S)N(CC(C)C)CC(C)C)C(Cl)(Cl)Cl (configuration not stated) | inactive: 6.53%
60 | O=C(OC1CN2CCC1CC2)c1ccccc1 (configuration not stated) | inactive: -8.02%
61 | CCC(=O)N1C2C3N(C(=O)CC)C1C1N(C(=O)CC)C(C(N1C(=O)CC)N3C(=O)CC)N2C(=O)CC | inactive: 12.6%
62 | Cc1ccccc1OP(=O)(Nc1ccccn1)Oc1ccccc1C | inactive: 18.8%
63 | CC(NC(=O)COC(=O)C(O)(c1ccccc1)c1ccccc1)c1ccccc1 (configuration not stated) | inactive: 12.7%
64 | CN(C)C(=O)Oc1noc2ccccc12 | inactive: 3.79%
65 | O=c1c2cc([N+](=O)[O-])ccc2[nH]c2c([N+](=O)[O-])cc([N+](=O)[O-])cc12 | inactive: -7.92%
66 | CCNC(=S)/N=C(\N)N[N+](=O)[O-] | inactive: 6.8%
67 | O=C(NC1CCS(=O)(=O)C1)NP(=S)(Oc1ccccc1)Oc1ccccc1 (configuration not stated) | inactive: 11.1%
68 | c1ccc(-c2nn[nH]n2)c(-c2nn[nH]n2)c1 | inactive: 3.09%
69 | Cc1ccc(NP(=O)(Oc2cccc(C)c2)Oc2cccc(C)c2)nc1 | inactive: 17.1%
70 | O=P1(N(CCCl)CCCl)OCCC2CCCCN21 (configuration not stated) | inactive: -18.8%
71 | O=[N+]([O-])c1ccc(O)c(/C=N/Nc2ccc([N+](=O)[O-])cc2[N+](=O)[O-])c1 | inactive: -4.24%
72 | O=[N+]([O-])c1ncn(CCn2cnc([N+](=O)[O-])n2)n1 | inactive: 2.48%
73 | CC(=O)NC(SC(=S)N(C)C)C(Cl)(Cl)Cl (configuration not stated) | inactive: 13.3%
74 | O=[As](O)(c1ccccc1)c1ccc(O)cc1 | inactive: 4.85%
75 | Nc1ccc([As](=O)(O)c2ccc([N+](=O)[O-])cc2)cc1 | inactive: 5.96%
76 | C(Cc1nn[nH]n1)Cc1nn[nH]n1 | inactive: -0.7%
77 | O=C(OC1CN2CCC1CC2)c1cccc(Cl)c1 (configuration not stated) | inactive: -7.6%
78 | Nc1ccc(CCCCOc2ccccc2)cc1 | inactive: -31.6%

Row | Compound | inhibition
79 | COc1ccc(N)c([N+](=O)[O-])c1[N+](=O)[O-] | inactive: -3.14%
80 | O=P(Nc1ccccn1)(c1ccc(Br)cc1)c1ccc(Br)cc1 | inactive: 8.93%
81 | CN(C)C1(CNC(=O)c2ccc(Cl)c(S(N)(=O)=O)c2)CCCCC1 | inactive: -2.02%
82 | O=P(Nc1nc2ccccc2s1)(c1ccccc1)c1ccccc1 | inactive: 12.5%
83 | C[C@H]1OP(=O)(Oc2ccccc2)[C@H](O)[C@H](O)[C@H]1N=[N+]=[N-] (some centres not stated) | inactive: -3.64%
84 | CC(C)C(=O)NC(Sc1ccccc1)C(Cl)(Cl)Cl (configuration not stated) | inactive: 18.2%
85 | O=P(Nc1nccs1)(c1ccccc1)c1ccccc1 | inactive: 5.44%
86 | c1nnnn1CCn1cnnn1 | inactive: -25.1%
87 | COc1ccccc1CNC(=O)COC(=O)C(O)(c1ccccc1)c1ccccc1 | inactive: -0.82%
88 | CC1(CBr)Cn2c(nc3ccccc3c2=O)S1 (configuration not stated) | inactive: -0.87%
89 | CC(C)/C=N\N=C(\N)N[N+](=O)[O-] | inactive: -0.56%
90 | CN(C(=O)Cc1ccc(Cl)c(Cl)c1)[C@@H]1CCCC[C@H]1N1CCCC1 | inactive: 4.59%
91 | CN(CCCl)Cc1cc(Cl)c(NC2=NCCN2)c(Cl)c1 | inactive: -4.32%
92 | CCOP(=O)(Nc1ccc(C)cn1)OCC | inactive: 2.61%
93 | O=P1(Nc2ccccn2)COc2ccccc2OC1 | inactive: -12.1%
94 | CCC1=CC2Cc3nc4ccc(Cl)cc4c(N)c3C(C1)C2 (configuration not stated) | inactive: 11.7%
95 | CCOP(=O)(NC(=NC(C)c1ccccc1)NC(C)c1ccccc1)OCC (configuration not stated) | inactive: 0.81%
96 | O=P1(N(CCCl)CCCl)NCCC(C(F)(F)F)O1 (configuration not stated) | inactive: 14.4%
97 | Clc1n[nH]nc1-c1nn[nH][15n]1 | inactive: -24.8%
98 | CC(C)(C)C(=O)NC(Sc1ncccn1)C(Cl)(Cl)Cl (configuration not stated) | inactive: 13.2%
99 | O=P1(Nc2ncccn2)COc2ccccc2OC1 | inactive: -3.73%
100 | Cc1ccc(S(=O)(=O)N(CCCN)CCCc2c(C)nc(N)[nH]c2=O)cc1 | inactive: 12.3%
101 | O=P1(Nc2ccc(Br)cn2)COc2ccccc2OC1 | inactive: 15.5%
102 | NS(=O)(=O)c1cccc(NC(=O)COC(=O)C(O)(c2ccccc2)c2ccccc2)c1 | inactive: -1.7%

— PubChem BioAssay AID588352 (The Scripps Research Institute Molecular Screening Center, 2011)
